Earlier results on 2 molecules are cited in paper PMC10223992, “In Silico-Motivated Discovery of Novel Potent Glycogen Synthase-3 Inhibitors: 1-(Alkyl/arylamino)-3H-naphtho[1,2,3-de]quinoline-2,7-dione Identified as a Scaffold for Kinase Inhibitor Development” (Pharmaceuticals, 2023).

The series relates to GSK-3β. Also noted: method as in ChEMBL database [53]. The following applies: read-out: IC50 (GSK-3β, known actives); cited from earlier work.

On to `Cc1cccc(N2CCN(CCCNC(=O)c3nc(-c4cccnc4)no3)C(C)C2)c1` (centres unmarked) [CHEMBL254582], for which the IC50 is 200 nM.
In the case of `Cc1cc(-c2cc(-c3nc4ccc(CN5CCN(C)CC5)cc4[nH]3)c(=O)[nH]n2)cc(C)c1O` [CHEMBL270473], the half-inhibitory concentration (IC50) is 1.5 nM.
